# CycPeptMPDB entries from one study

Collected by the curators of CycPeptMPDB (Li et al. 2023) from Townsend et al. 2020, doi:10.26434/chemrxiv.13335941.v1.

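Conditions beyond the assay type are not listed; see the original paper. Other peptides of the study may be missing here. Peptides that the database sets to -10, its floor, are left out.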

PAMPA is the parallel artificial membrane permeability assay, which has no cells and reads passive diffusion.
Values are log10 P with P in cm/s, so -5 is more permeable than -7.

compound	PAMPA (log10 cm/s)
CC(C)C[C@@H]1NC(=O)[C@@H](C)N(C)C(=O)[C@H]2CCCN2C(=O)[C@H](Cc2ccccc2)NC(=O)[C@H](CC(C)C)N(C)C(=O)[C@@H]2CCCN2C(=O)C[C@H](Cc2ccccc2)NC1=O	-5.58
CC(C)C[C@@H]1NC(=O)[C@H]2CCCN2C(=O)[C@H](CC(C)C)N(C)C(=O)[C@@H](CC(C)C)N(C)C(=O)[C@H](C)N(C)C(=O)[C@H]2CCCN2C(=O)[C@H](Cc2ccccc2)NC1=O	-5.81
CC(C)C[C@@H]1C(=O)N(Cc2ccccc2)CC(=O)N2CCC[C@@H]2C(=O)N[C@H](CC(C)C)C(=O)N[C@@H](Cc2ccccc2)C(=O)N[C@H](C)C(=O)N1C	-5.20
CC(C)C[C@@H]1NC(=O)[C@H](C)N(C)C(=O)[C@H]2CCCN2C(=O)[C@H](Cc2ccccc2)NC(=O)[C@H](CC(C)C)N(C)C(=O)[C@@H]2CCCN2C(=O)[C@@H](CC(C)C)NC1=O	-5.50
CC(C)C[C@H]1NC(=O)[C@H]2CCCN2C(=O)[C@H](CC(C)C)N(C)C(=O)[C@@H](CC(C)C)NC(=O)[C@@H](C)N(C)C(=O)[C@@H]2CCCN2C(=O)[C@H](Cc2ccccc2)NC1=O	-5.68
CC(C)C[C@@H]1NC(=O)[C@@H](CC(C)C)NC(=O)[C@H](C)NC(=O)[C@H](Cc2ccccc2)NC(=O)CN(Cc2ccccc2)C(=O)[C@H]2CCCN2C1=O	-5.56
CC(C)C[C@@H]1NC(=O)C[C@H](Cc2ccccc2)NC(=O)[C@H](Cc2ccccc2)NC(=O)[C@H](CC(C)C)N(C)C(=O)[C@H]2CCCN2C(=O)[C@H](CC(C)C)N(C)C1=O	-5.09
CC(C)C[C@@H]1C(=O)N2CCC[C@H]2C(=O)N(Cc2ccccc2)CC(=O)N[C@@H](Cc2ccccc2)C(=O)N2CCC[C@H]2C(=O)N(C)[C@H](C)C(=O)N[C@H](CC(C)C)C(=O)N1C	-5.36
CCCN1CC(=O)N(C)[C@H](CC(C)C)C(=O)N(C)[C@@H](CC(C)C)C(=O)N2CCC[C@@H]2C(=O)N[C@@H](CC(C)C)C(=O)N[C@@H](Cc2ccccc2)C(=O)N2CCC[C@H]2C1=O	-5.34
CC(C)C[C@@H]1C(=O)N[C@@H](Cc2ccccc2)C(=O)N2CCC[C@@H]2C(=O)N(C)[C@@H](C)C(=O)N[C@H](CC(C)C)C(=O)N[C@H](CC(C)C)C(=O)N2CCC[C@H]2C(=O)N1C	-6.63
CCCN1CC(=O)N[C@@H](CC(C)C)C(=O)N[C@@H](CC(C)C)C(=O)N2CCC[C@@H]2C(=O)N[C@@H](CC(C)C)C(=O)N[C@@H](Cc2ccccc2)C(=O)N2CCC[C@@H]2C1=O	-5.74
CC(C)C[C@H]1NC(=O)[C@@H](C)N(C)C(=O)[C@H]2CCCN2C(=O)[C@H](Cc2ccccc2)NC(=O)[C@H](CC(C)C)N(C)C(=O)[C@H]2CCCN2C(=O)[C@H](CC(C)C)N(C)C1=O	-5.83
CC(C)C[C@@H]1NC(=O)[C@@H](CC(C)C)N(C)C(=O)C[C@H](Cc2ccccc2)NC(=O)[C@H](Cc2ccccc2)NC(=O)CN(Cc2ccccc2)C(=O)[C@H]2CCCN2C1=O	-5.56

Excerpt, the final 2 entries:

{"smiles": "CC(C)C[C@H]1NC(=O)[C@@H](C)N(C)C(=O)[C@H]2CCCN2C(=O)[C@H](Cc2ccccc2)NC(=O)[C@H](CC(C)C)N(C)C(=O)[C@H]2CCCN2C(=O)[C@H](CC(C)C)N(C)C1=O", "PAMPA (log10 cm/s)": "-5.83"}
{"smiles": "CC(C)C[C@@H]1NC(=O)[C@@H](CC(C)C)N(C)C(=O)C[C@H](Cc2ccccc2)NC(=O)[C@H](Cc2ccccc2)NC(=O)CN(Cc2ccccc2)C(=O)[C@H]2CCCN2C1=O", "PAMPA (log10 cm/s)": "-5.56"}